The target in test [1] is SREBP-2 (Homo sapiens (Human), UniProt Q12772). The test is described as follows: In vitro assay SREBP-2: PathHunter U2OS SREBP-2 Nuclear Translocation Cell Line, U18666A-stimulated. The class given is cell-based. The settings on record: read-out: SREBP-2 IC50.
In test [2] the target is LXRβ (Homo sapiens (Human), UniProt P55055). The test is described as follows: In vitro assay LXRβ: PathHunter NHR CHO cells, LXRβ / Steroid Receptor Co-activator Peptide enzyme fragment complementation. The class given is cell-based. How it is done: PathHunter NHR CHO cells stably transfected with tagged full-length human LXRβ and a nuclear fusion protein containing Steroid Receptor Co-activator Peptide (SRCP). The full-length human LXRβ was tagged with the ProLink™ component of the DiscoverX Enzyme Fragment Complementation (EFC) system and the SRCP domain is fused to the enzyme acceptor component (EA) expressed in the nucleus. Cells were seeded in a total volume of 20 μL into white walled, 384-well microplates and incubated at 37° C. overnight prior to testing. Assay media contained charcoal-dextran filtered serum to reduce the level of hormones present. Final assay vehicle concentration was 1%. […] Microplates were read following signal generation with a PerkinElmer Envision instrument for chemiluminescent signal detection.

The chains behind the UniProt entries cited, without tags or fusion partners.
UniProt P55055, whole entry: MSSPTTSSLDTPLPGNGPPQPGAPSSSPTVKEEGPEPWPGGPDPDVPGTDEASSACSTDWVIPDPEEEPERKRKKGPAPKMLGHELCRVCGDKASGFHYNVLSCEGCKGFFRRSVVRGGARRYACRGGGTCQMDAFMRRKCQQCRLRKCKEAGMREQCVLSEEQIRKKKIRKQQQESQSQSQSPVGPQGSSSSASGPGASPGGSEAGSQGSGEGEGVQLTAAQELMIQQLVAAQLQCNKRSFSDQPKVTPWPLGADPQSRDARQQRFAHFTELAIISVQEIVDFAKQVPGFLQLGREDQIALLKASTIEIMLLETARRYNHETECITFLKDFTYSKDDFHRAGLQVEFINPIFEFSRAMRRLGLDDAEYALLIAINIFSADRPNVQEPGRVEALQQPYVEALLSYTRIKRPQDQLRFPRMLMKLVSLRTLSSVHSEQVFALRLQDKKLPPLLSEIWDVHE

The mark [3] stands for this setting: PathHunter U2OS SREBP-2 nuclear translocation cells, U18666A 10 μM, overnight (16 hours).
Setting [4] is: PathHunter NHR CHO cells, full-length human LXRβ and SRCP, chemiluminescent signal, read-out: LXRβ PPI.

pEC50, pIC50: −log10 of the molar value. Like-named read-outs stand apart in the source and are kept apart here.

By pIC50 is commonly meant −log10 of the IC50, conventionally taken in molar units.

For `C[C@H](CCC(=O)N1CCC(C)(O)CC1)[C@H]1CC[C@H]2[C@@H]3CC=C4C[C@@H](O)CC[C@]4(C)[C@H]3CC[C@]12C` [Example 6, (R)-4-((3S,8S,9S,10R,13R,14S,17R)-3-hydroxy-10,13-dimethyl-2,3,4,7,8,9,10,11,12,13,14,15,16,17-tetradecahydro-1H-cyclopenta[a]phenanthren-17-yl)-1-(4-hydroxy-4-methylpiperidin-1-yl)pentan-1-one], the pIC50 in test [1] (setting [3]) was > 6.60.

With `C[C@H](CCC(=O)N1CCS(=O)(=O)CC1)[C@H]1CC[C@H]2[C@@H]3CC=C4C[C@@H](O)CC[C@]4(C)[C@H]3CC[C@]12C` [Example 9, (R)-1-(1,1-dioxidothiomorpholino)-4-((3S,8S,9S,10R,13R,14S,17R)-3-hydroxy-10,13-dimethyl-2,3,4,7,8,9,10,11,12,13,14,15,16,17-tetradecahydro-1H-cyclopenta[a]phenanthren-17-yl)pentan-1-one], the negative-log IC50 (pIC50) in test [1] (setting [3]) is > 6.60. Further, in test [2], the pEC50 is < 5.00.

For the compound `C[C@H](CCC(=O)N(C)OC1CC1)[C@H]1CC[C@H]2[C@@H]3CC=C4C[C@@H](O)CC[C@]4(C)[C@H]3CC[C@]12C` [Example 37, (R)—N-cyclopropoxy-4-((3S,8S,9S,10R,13R,14S,17R)-3-hydroxy-10,13-dimethyl-2,3,4,7,8,9,10,11,12,13,14,15,16,17-tetradecahydro-1H-cyclopenta[a]phenanthren-17-yl)-N-methylpentanamide], in test [1], the pIC50 was 6.00 to 6.60. Further, in test [2], the pEC50 is 6.00 to 6.60.

For `C[C@H](CCC(=O)N(C)C)[C@H]1CC[C@H]2[C@@H]3CC=C4C[C@@H](O)C[C@H](O)[C@]4(C)[C@H]3CC[C@]12C` [Example 123, (R)-4-((1S,3R,8S,9S,10R,13R,14S,17R)-1,3-dihydroxy-10,13-dimethyl-2,3,4,7,8,9,10,11,12,13,14,15,16,17-tetradecahydro-1H-cyclopenta[a]phenanthren-17-yl)-N,N-dimethylpentanamide], in test [1], the pIC50 was < 5.00.

As to `C[C@H](CCC(=O)N1CC[C@H](CO)C1)[C@H]1CC[C@H]2[C@@H]3CC=C4C[C@@H](O)CC[C@]4(C)[C@H]3CC[C@]12C` [Example 233, (4R)-4-[(1R,3aS,3bS,7S,9aR,9bS,11aR)-7-hydroxy-9a,11a-dimethyl-1H,2H,3H,3aH,3bH,4H,6H,7H,8H,9H,9aH,9bH,10H,11H,11aH-cyclopenta[a]phenanthren-1-yl]-1-[(3S)-3-(hydroxymethyl)pyrrolidin-1-yl]pentan-1-one], the pIC50 in test [1] (setting [3]) was > 6.60.

On to `C[C@H](CCC(=O)N1CC[C@@H](CO)C1)[C@H]1CC[C@H]2[C@@H]3CC=C4C[C@@H](O)CC[C@]4(C)[C@H]3CC[C@]12C` [Example 234, (R)-4-((3S,8S,9S,10R,13R,14S,17R)-3-hydroxy-10,13-dimethyl-2,3,4,7,8,9,10,11,12,13,14,15,16,17-tetradecahydro-1H-cyclopenta[a]phenanthren-17-yl)-1-((R)-3-(hydroxymethyl)pyrrolidin-1-yl)pentan-1-one], for which the pIC50 in test [1] (setting [3]) was > 6.60.

For `C[C@H](CCC(=O)N(C)CCc1ccccn1)[C@H]1CC[C@H]2[C@@H]3CC=C4C[C@@H](O)CC[C@]4(C)[C@H]3CC[C@]12C` [Example 293, (4R)-4-[(1R,3aS,3bS,7S,9aR,9bS,11aR)-7-hydroxy-9a,11a-dimethyl-1H,2H,3H,3aH,3bH,4H,6H,7H,8H,9H,9aH,9bH,10H,11H,11aH-cyclopenta[a]phenanthren-1-yl]-N-methyl-N-[2-(pyridin-2-yl)ethyl]pentanamide], in test [1] (setting [3]), the pIC50 is > 6.60.

Regarding `C[C@@H](CCC(=O)N(C)[C@H]1CC[C@@H](C(=O)N(C)C)CC1)[C@H]1CC[C@H]2[C@@H]3CC=C4C[C@@H](O)CC[C@]4(C)[C@H]3CC[C@]12C` [Example 297, (1S,4s)-4-((R)-4-((3S,8S,9S,10R,13R,14S,17R)-3-hydroxy-10,13-dimethyl-2,3,4,7,8,9,10,11,12,13,14,15,16,17-tetradecahydro-1H-cyclopenta[a]phenanthren-17-yl)-N-methylpentanamido)-N,N-dimethylcyclohexane-1-carboxamide], in test [1], the pIC50 was > 6.60. Moreover, the pEC50 in test [2] (setting [4]) is < 5.00.

As for `C[C@H](CCC(=O)N1CCN(C(=O)C2CC2)CC1)[C@H]1CC[C@H]2[C@@H]3CC=C4C[C@@H](O)CC[C@]4(C)[C@H]3CC[C@]12C` [Example 314, (4R)-4-[(1R,3aS,3bS,7S,9aR,9bS,11aR)-7-hydroxy-9a,11a-dimethyl-1H,2H,3H,3aH,3bH,4H,6H,7H,8H,9H,9aH,9bH,10H,11H,11aH-cyclopenta[a]phenanthren-1-yl]-1-(4-cyclopropanecarbonylpiperazin-1-yl)pentan-1-one], the negative logarithm of the IC50 (pIC50) in test [1] (setting [3]) is > 6.60.

Consider `CC(C)C(=O)N1CCN(C(=O)CC[C@@H](C)[C@H]2CC[C@H]3[C@@H]4CC=C5C[C@@H](O)CC[C@]5(C)[C@H]4CC[C@]23C)CC1` [Example 315, (R)-4-((3S,8S,9S,10R,13R,14S,17R)-3-hydroxy-10,13-dimethyl-2,3,4,7,8,9,10,11,12,13,14,15,16,17-tetradecahydro-1H-cyclopenta[a]phenanthren-17-yl)-1-(4-isobutyrylpiperazin-1-yl)pentan-1-one], for which the pIC50 in test [1] (setting [3]) was > 6.60.

On to `C[C@H](CCC(=O)N1CCCS(=O)(=O)CC1)[C@H]1CC[C@H]2[C@@H]3CC=C4C[C@@H](O)CC[C@]4(C)[C@H]3CC[C@]12C` [Example 355, {[(1R,3aS,3bS,5S,5aR,7R,9aR,9bS,11aR)-7-[(tert-butyldimethylsilyl)oxy]-9a,11a-dimethyl-1-[(2R,3E)-6-methyl-5-(trifluoromethyl)-5-[(trimethylsilyl)oxy]hept-3-en-2-yl]-hexadecahydro-1H-cyclopenta[a]phenanthren-5-yl]oxy}(tert-butyl)dimethylsilane], for which the negative logarithm of the IC50 (pIC50) in test [1] was 6.00 to 6.60. Moreover, the pEC50 in test [2] (setting [4]) is < 5.00.

Regarding `C[C@H](CCC(=O)N1CCC(O)(C2CCCCC2)CC1)[C@H]1CC[C@H]2[C@@H]3CC=C4C[C@@H](O)CC[C@]4(C)[C@H]3CC[C@]12C` [Example 383, (R)-1-(4-cyclohexyl-4-hydroxypiperidin-1-yl)-4-((3S,8S,9S,10R,13R,14S,17R)-3-hydroxy-10,13-dimethyl-2,3,4,7,8,9,10,11,12,13,14,15,16,17-tetradecahydro-1H-cyclopenta[a]phenanthren-17-yl)pentan-1-one], the pIC50 in test [1] (setting [3]) is > 6.60. Further, the pEC50 in test [2] was < 5.00.

Regarding `C[C@H](CCC(=O)N1CCC(O)(C2CCCCC2)CC1)[C@H]1CC[C@H]2[C@@H]3CC=C4C[C@@H](O)CC[C@]4(C)[C@H]3CC[C@]12C` [Example 507, (R)-1-(4-cyclohexyl-4-hydroxypiperidin-1-yl)-4-((3S,8S,9S,10R,13R,14S,17R)-3-hydroxy-10,13-dimethyl-2,3,4,7,8,9,10,11,12,13,14,15,16,17-tetradecahydro-1H-cyclopenta[a]phenanthren-17-yl)pentan-1-one], in test [1], the pIC50 was > 6.60.

With `C[C@H](CCC(=O)N1CCC(C)(CN2CCOC(C)(C)C2=O)CC1)[C@H]1CC[C@H]2[C@@H]3CC=C4C[C@@H](O)CC[C@]4(C)[C@H]3CC[C@]12C` [Example 523, 4-((1-((R)-4-((3S,8S,9S,10R,13R,14S,17R)-3-hydroxy-10,13-dimethyl-2,3,4,7,8,9,10,11,12,13,14,15,16,17-tetradecahydro-1H-cyclopenta[a]phenanthren-17-yl)pentanoyl)-4-methylpiperidin-4-yl)methyl)-2,2-dimethylmorpholin-3-one], in test [2] (read-out: LXRβ PPI), the pEC50 is 6.00 to 6.60.

As to `C[C@H](CCC(=O)Nc1ccncc1)[C@H]1CC[C@H]2[C@@H]3CC=C4C[C@@H](O)CC[C@]4(C)[C@H]3CC[C@]12C` [Example 547, (4R)-4-[(1R,3aS,3bS,7S,9aR,9bS,11aR)-7-hydroxy-9a,11a-dimethyl-1H,2H,3H,3aH,3bH,4H,6H,7H,8H,9H,9aH,9bH,10H,11H,11aH-cyclopenta[a]phenanthren-1-yl]-N-(pyridin-4-yl)pentanamide], the pIC50 in test [1] was > 6.60.

For the compound `COC(=S)N1CCN(C(=O)CC[C@@H](C)[C@H]2CC[C@H]3[C@@H]4CC=C5C[C@@H](O)CC[C@]5(C)[C@H]4CC[C@]23C)CC1` [Example 549, O-methyl4-((R)-4-((3S,8S,9S,10R,13R,14S,17R)-3-hydroxy-10,13-dimethyl-2,3,4,7,8,9,10,11,12,13,14,15,16,17-tetradecahydro-1H-cyclopenta[a]phenanthren-17-yl)pentanoyl)piperazine-1-carbothioate], the pIC50 in test [1] is > 6.60.

As for `CNc1nccc(N2CCN(C(=O)CC[C@@H](C)[C@H]3CC[C@H]4[C@@H]5CC=C6C[C@@H](O)CC[C@]6(C)[C@H]5CC[C@]34C)CC2)n1` [Example 561, (R)-4-((3S,8S,9S,10R,13R,14S,17R)-3-hydroxy-10,13-dimethyl-2,3,4,7,8,9,10,11,12,13,14,15,16,17-tetradecahydro-1H-cyclopenta[a]phenanthren-17-yl)-1-(4-(2-(methylamino)pyrimidin-4-yl)piperazin-1-yl)pentan-1-one], in test [1], the pIC50 is > 6.60.

Values taken from patent US20230340011A1 (Asteroid Therapeutics, priority 2022, published 2023).
